The subject of this experiment is Histidine protein kinase DivJ (Caulobacter vibrioides). Briefly: Inhibition of recombinant Caulobacter vibrioides N-terminal His6-tagged catalytic domain DivJ (188 to 585 residues) expressed in Escherichia coli BL21 (DE3) assessed as enzyme aggregation at 400 uM after 30 mins by native-PAGE analysis.

The source made the active and inactive calls. The rule behind the calls is not given here.

On to `Oc1cc(O)c(-c2[nH]ncc2-c2ccc3c(c2)OCCO3)cc1Cl`, for which the inhibition entry was “inactive”.

These data come from ChEMBL document CHEMBL4184156, “Repurposing Hsp90 inhibitors as antibiotics targeting histidine kinases” (Bioorg Med Chem Lett, 2017).
